From US5726177A, “Indole-derived arylpiperazines as ligands for 5HT1 -like, 5HT1B and 5HT1D receptors” (Pierre Fabre Medicament, priority 1993, dated 1998)
Structures can show the parent of a compound that is named as a salt. Where two headings read alike, the source gives them in different places.

Chains of the proteins cited; added tags and fusions are not shown.
UniProt P08908, whole entry: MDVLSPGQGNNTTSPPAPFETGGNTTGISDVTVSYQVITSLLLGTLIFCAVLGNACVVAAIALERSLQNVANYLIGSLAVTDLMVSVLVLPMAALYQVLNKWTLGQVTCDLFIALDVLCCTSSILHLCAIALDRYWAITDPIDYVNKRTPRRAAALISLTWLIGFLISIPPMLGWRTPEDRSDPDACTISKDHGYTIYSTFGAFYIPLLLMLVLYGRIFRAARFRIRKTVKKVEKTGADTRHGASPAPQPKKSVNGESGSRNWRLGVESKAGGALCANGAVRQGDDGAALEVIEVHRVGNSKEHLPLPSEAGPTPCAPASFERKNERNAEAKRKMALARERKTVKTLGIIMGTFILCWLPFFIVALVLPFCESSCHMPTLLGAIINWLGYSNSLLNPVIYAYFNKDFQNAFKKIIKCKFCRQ

Target: human 5HT1A receptor (Homo sapiens, UniProt P08908)
Assay: Binding to human 5HT1A receptor (HeLa HA7 cell line)
Description: The HeLa HA7 cell line expressing the 5HT1A human receptor was obtained from Tulco (Duke Univ., Durham, N.C., USA) and cultured according to the method of Fargin et al., J. Biol. Chem., 264, 14848 (1989).
The binding of the derivatives of the present invention with human 5HT1Da, 5HT1Db and 5HT1A receptors was studied according to the method described by P. Pauwels and C. Palmier (Neuropharmacology, 33, 67, 1994).
The incubation media for these binding measurements comprise 0.4 ml of cell membrane preparation, 0.05 ml of a tritiated ligand [[3H]-SCT (final concentration: 2 nM) for the 5HT1Da and 5HT1Db receptors and [3H]-80H-DPAT (final concentration: 1 nM) for the 5HT1A receptor] and 0.05 ml of the molecule to be tested (final concentrations from 0.1 nM to 1000 nM) or 10 μM (final concentration) of serotonin (5HT1Da and 5HT1Db) or 1 μM (final concentration) of spiroxatrin (5HT1A ).

[1] = HeLa HA7 cells, [3H]-DPAT ligand 1 nM

SMILES	Ki [1]	Ki
NCCc1c[nH]c2ccc(OCC(=O)N3CCN(c4ccc([N+](=O)[O-])cc4)CC3)cc12 [Example 1, 2-[3-(2-Aminoethyl)-1H-indol-5-yloxy]-1-[4-(4-nitrophenyl)piperazin-1-yl]ethanone hydrochloride]	25 nM	–
CC(=O)Nc1ccc(N2CCN(C(=O)COc3ccc4[nH]cc(CCN)c4c3)CC2)cc1 [Example 3, N-[4-(4-{2-[3-(2-Aminoethyl)-1H-indol-5-yloxy]acetyl}piperazin-1-yl)phenyl]acetamide hydrochloride]	–	78.6 nM
CS(=O)(=O)Nc1ccc(N2CCN(C(=O)COc3ccc4[nH]cc(CCN)c4c3)CC2)cc1 [Example 5, N-[4-(4-{2-[3-(2-Aminoethyl)-1H-indol-5-yloxy]acetyl}piperazin-1-yl)phenyl]methanesulfonamide hydrochloride]	73 nM	–
CS(=O)(=O)Nc1ccc(N2CCN(C(=O)CCCCCOc3ccc4[nH]cc(CCN)c4c3)CC2)cc1 [Example 59, N-[4-(4-{6-[3-(2-Aminoethyl)-1H-indol-5-yloxy]hexanoyl}piperazin-1-yl)phenyl]methane sulfonamide hydrochloride]	9.3 nM	–
